This note sets out measurements from ChEMBL document CHEMBL1128860, “5-O-Carboxymethyl piperazide derivatives of serotonin: a new class of potent and selective 5-HT1D receptor agonists” (Bioorg Med Chem Lett, 1995).

By UniProt entry, the sequences of proteins in these tests, tags left out.
UniProt P08908, whole entry: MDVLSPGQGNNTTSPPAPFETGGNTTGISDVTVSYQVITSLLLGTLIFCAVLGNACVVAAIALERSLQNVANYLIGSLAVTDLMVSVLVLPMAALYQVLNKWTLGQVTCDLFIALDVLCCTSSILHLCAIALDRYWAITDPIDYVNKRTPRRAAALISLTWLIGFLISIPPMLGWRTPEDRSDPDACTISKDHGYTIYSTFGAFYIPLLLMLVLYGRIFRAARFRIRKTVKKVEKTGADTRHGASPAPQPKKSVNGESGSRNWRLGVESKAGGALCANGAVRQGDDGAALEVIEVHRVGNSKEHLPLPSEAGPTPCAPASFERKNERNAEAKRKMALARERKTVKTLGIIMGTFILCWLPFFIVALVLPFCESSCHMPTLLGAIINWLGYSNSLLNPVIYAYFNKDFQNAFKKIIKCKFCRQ

A word on the EC50: it is the concentration needed to bring the measured effect to its halfway point. A high value points to lower potency in that assay.

The target of this assay is 5-hydroxytryptamine receptor 1A (Homo sapiens, UniProt P08908). As to the kind of experiment: Compound was tested for its ability to inhibit forskolin-stimulated activity of adenylate cyclase coupled to human 5-HT 1A receptor in HeLa cells. The format is functional, cell-based.

Regarding `CNS(=O)(=O)Cc1ccc2[nH]cc(CCN(C)C)c2c1`, the EC50 was > 1000 nM.
